The test system of the assay is normal dermal fibroblasts. The assay is described as follows: Elastic fiber deposition (immuno-staining morphometry, [3H]-valine insoluble elastin) in monolayer cultures. The format is cell-based, human. The settings on record: inhibitor pre-incubation then 100 μM SA, 5% FBS; probenecid 400 μM. As to the method:
Cell Cultures—Fibroblasts initially grew out from the explants of these full thickness skin biopsies and were maintained. The primary cultures of fat-derived fibroblasts obtained from Thermogenesis (Rancho Cordova, Calif.) were also tested. In all described experiments, 2-4 passages of both kinds of fibroblasts were used. In experiments aimed at assessing ECM production, cells were initially plated at a concentration of 100,000 cells/dish.
Immuno-staining—All cultures maintained in the presence and absence of indicated reagents were either fixed in cold 100% methanol at −20° C. (for detection of elastin) or in 4% paraformaldehyde at room temperature (for detection of collagen I). The multiple parallel cultures were then incubated with 10 μg/ml of polyclonal antibody to tropoelastin (Elastin Products, Owensville, Mich.), or polyclonal antibody to collagen type I (Chemicon, Temecula, Calif.). […] All of the cultures were then examined with a Nikon Eclipse E1000 microscope attached to a cooled CCD camera (QImaging, Retiga EX) and analyzed by the computer-generated morphometric analysis system (Image-Pro Plus software, Media Cybernetics, Silver Springs, Md.) as previously described.
Quantitative Assays of Insoluble Elastin—Fibroblasts were grown to confluency in 35-mm culture dishes (100,000 cells/dish). […]

“Also recorded” adds a separate entry of the source.

Regarding `COc1cc([C@@H]2c3cc4c(cc3[C@H](O)[C@H]3COC(=O)[C@@H]23)OCO4)cc(OC)c1OC` [PPP, reference compound], the “elastogenic effects of 100 μM SA after pre-treatment with the inhibitor (mRNA, tropoelastin, insoluble elastin, elastic fibers)” value is reported as “did not trigger elastogenic effects; also recorded: abolish all elastogenic effects”.

The values above are taken from patent US20130184337A1, “SODIUM ASCORBATE STIMULATION OF ELASTOGENESIS” (THE HOSPITAL FOR SICK CHILDREN, priority 2012, published 2013).
